Data as given in patent US20180194762A1 (Pharmacyclics LLC, priority 2017, published 2018).

The chains behind the UniProt entries cited, without tags or fusion partners.
UniProt Q06187, whole entry: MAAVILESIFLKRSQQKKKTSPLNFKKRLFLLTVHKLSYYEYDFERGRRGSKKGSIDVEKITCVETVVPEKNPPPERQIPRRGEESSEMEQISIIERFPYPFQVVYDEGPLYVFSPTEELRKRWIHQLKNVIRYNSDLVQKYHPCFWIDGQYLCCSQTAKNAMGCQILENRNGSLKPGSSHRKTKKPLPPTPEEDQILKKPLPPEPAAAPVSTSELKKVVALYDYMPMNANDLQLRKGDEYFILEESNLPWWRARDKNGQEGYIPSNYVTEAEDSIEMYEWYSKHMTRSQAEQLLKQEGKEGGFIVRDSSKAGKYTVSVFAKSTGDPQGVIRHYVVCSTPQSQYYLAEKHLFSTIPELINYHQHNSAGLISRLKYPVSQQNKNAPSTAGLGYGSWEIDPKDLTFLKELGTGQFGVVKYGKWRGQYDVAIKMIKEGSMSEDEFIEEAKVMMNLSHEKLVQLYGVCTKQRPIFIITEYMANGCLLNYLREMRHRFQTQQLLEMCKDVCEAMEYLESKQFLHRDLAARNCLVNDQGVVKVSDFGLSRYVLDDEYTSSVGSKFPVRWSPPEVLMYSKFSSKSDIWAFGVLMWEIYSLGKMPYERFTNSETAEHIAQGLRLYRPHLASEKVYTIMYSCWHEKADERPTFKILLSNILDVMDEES
UniProt P42680, whole entry: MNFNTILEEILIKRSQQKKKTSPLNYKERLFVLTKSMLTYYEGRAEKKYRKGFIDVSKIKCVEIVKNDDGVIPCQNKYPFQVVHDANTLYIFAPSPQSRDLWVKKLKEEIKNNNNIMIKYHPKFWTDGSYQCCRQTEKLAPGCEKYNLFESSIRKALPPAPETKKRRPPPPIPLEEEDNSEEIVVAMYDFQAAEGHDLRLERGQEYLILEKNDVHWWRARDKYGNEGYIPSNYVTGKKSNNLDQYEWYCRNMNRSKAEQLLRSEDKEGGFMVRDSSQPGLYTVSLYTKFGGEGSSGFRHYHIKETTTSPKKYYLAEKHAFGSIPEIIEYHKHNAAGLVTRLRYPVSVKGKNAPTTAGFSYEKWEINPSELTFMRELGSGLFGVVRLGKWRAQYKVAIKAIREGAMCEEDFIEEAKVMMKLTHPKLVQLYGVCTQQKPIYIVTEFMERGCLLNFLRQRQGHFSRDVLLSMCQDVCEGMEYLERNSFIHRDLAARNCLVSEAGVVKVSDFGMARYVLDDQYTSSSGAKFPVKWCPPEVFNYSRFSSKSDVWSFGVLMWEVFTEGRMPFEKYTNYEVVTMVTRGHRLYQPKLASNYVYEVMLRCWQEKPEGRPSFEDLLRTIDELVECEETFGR
UniProt P51813, whole entry: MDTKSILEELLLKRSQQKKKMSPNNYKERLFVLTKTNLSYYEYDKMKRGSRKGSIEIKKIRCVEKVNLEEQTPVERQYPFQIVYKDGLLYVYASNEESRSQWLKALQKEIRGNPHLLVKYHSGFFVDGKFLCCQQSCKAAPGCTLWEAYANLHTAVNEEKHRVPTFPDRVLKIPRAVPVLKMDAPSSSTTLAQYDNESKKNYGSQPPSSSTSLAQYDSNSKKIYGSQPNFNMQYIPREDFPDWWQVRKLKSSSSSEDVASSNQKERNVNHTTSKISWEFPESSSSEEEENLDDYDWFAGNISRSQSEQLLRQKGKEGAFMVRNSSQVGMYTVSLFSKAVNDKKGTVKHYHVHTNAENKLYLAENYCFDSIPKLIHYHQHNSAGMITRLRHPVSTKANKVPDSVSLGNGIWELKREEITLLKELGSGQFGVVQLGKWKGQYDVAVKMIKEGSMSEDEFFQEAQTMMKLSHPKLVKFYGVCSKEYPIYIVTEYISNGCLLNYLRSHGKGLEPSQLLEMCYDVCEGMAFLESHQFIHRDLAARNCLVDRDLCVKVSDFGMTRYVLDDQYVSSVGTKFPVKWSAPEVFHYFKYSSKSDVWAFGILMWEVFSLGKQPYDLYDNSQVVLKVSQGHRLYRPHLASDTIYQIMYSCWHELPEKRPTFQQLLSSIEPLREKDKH

Experiments:
Type in all cases: biochemical
Btk = Btk (Homo sapiens, UniProt Q06187); test: Btk in vitro inhibitory activity (one of Method A TR-FRET, Method B electrophoretic mobility shift, Method C radiometric filter binding); details: read-out: Btk-WT IC50; wild-type Btk
Experimental: Example 62a: Btk In Vitro Inhibitory Activity (Method A)
Btk kinase activity is determined using a time-resolved fluorescence resonance energy transfer (TR-FRET) methodology. Measurements are performed in a reaction volume of 50 μL using 96-well assay plates. Kinase enzyme, inhibitor, ATP (at the Km for the kinase), and 1 μM peptide substrate (Biotin-AVLESEEELYSSARQ-NH2) are incubated in a reaction buffer composed of 20 mM Tris, 50 mM NaCl, MgCl2 (5-25 mM depending on the kinase), MnCl2 (0-10 mM), 1 mM DTT, 0.1 mM EDTA, 0.01% bovine serum albumin, 0.005% Tween-20, and 10% DMSO at pH 7.4 for one hour. […] The TR-FRET signal is measured on a multimode plate reader with an excitation wavelength (λEx) of 330 nm and detection wavelengths (λEm) of 615 and 665 nm. Activity is determined by the ratio of the fluorescence at 665 nm to that at 615 nm. For each compound, enzyme activity is measured at various concentrations of compound. Negative control reactions are performed in the absence of inhibitor in replicates of six, and two no-enzyme controls are used to determine baseline fluorescence levels. […]
Kinase activity is measured in vitro using electrophoretic mobility shift assay. […] The terminated reactions are analyzed using a 12 channel LabChip® 3000 microfluidic detection instrument (Caliper Life Sciences). […] As substrate and product peptides are separated, two peaks of fluorescence are observed. […]

TEC = TEC (Homo sapiens, UniProt P42680); test: Inhibition of a panel of kinases (in vitro HotSpot kinase assay, 33P-ATP, 1 μM ATP)
Experimental: (§1) Example 63: Inhibition of a Panel of Kinases The degree of inhibition of a panel of kinases is determined using the in vitro HotSpot kinase assay (purified enzymes, ^33P-ATP, an appropriate substrate and 1 μM ATP).

panel of kinases = panel of kinases (Homo sapiens, UniProt P51813); test: Inhibition of a panel of kinases (in vitro HotSpot kinase assay, 33P-ATP, 1 μM ATP), other kinases; details: read-out: BMX-WT IC50, BMX wild-type
Experimental: as §1

For `C[C@@H](NC(=O)c1noc(C(C)(C)C)n1)c1ccc(-c2ccnc3[nH]nc(N[C@@H]4CCN(C(=O)N(C)C)C4)c23)cc1`, the IC50 (Btk) was 0.034 µM, the TEC/Btk (TEC; ratio of TEC IC50 to Btk IC50 (selectivity)) was 292 and the IC50 (TEC; read-out: TEC IC50, HotSpot kinase assay, 1 μM ATP) was 9.92 µM. For the same molecule, the IC50 (panel of kinases) was 9.19 µM.
